Patent US7879913B2 (Catholic Healthcare West, priority 2005, dated 2011)

Sequences of proteins named here, by UniProt entry; tags and fusion partners are left off. Residues count along the entry.
UniProt P17787, 26-502: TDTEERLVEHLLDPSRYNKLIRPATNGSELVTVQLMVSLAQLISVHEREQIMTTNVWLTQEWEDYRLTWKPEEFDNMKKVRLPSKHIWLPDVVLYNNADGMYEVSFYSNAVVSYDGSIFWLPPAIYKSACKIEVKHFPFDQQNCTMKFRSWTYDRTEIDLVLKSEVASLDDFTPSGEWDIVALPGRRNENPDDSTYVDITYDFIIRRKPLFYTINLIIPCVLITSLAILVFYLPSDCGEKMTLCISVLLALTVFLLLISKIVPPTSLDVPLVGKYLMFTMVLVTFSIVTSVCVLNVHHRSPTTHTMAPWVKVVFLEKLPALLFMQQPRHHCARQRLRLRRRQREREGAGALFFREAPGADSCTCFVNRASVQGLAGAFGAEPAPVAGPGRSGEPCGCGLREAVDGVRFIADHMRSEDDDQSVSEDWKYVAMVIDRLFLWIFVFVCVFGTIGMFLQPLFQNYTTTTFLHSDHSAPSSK
UniProt P43681, 29-627 limits assumed: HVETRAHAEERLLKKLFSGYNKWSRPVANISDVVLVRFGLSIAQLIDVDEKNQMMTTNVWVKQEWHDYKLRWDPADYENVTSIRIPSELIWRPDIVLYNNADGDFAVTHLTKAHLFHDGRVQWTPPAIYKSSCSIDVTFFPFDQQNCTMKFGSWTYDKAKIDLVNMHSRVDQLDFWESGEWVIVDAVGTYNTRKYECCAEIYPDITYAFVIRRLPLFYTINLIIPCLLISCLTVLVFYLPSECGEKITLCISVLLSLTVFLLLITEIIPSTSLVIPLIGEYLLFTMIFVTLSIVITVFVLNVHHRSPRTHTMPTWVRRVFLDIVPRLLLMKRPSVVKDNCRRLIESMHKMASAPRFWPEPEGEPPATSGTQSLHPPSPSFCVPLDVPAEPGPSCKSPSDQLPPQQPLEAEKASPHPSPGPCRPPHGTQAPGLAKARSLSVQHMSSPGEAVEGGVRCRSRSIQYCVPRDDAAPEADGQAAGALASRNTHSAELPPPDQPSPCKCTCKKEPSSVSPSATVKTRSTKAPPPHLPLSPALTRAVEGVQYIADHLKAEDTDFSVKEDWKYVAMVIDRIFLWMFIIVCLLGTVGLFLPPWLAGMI

Biological target: α4β2-nAChR agonist binding sites (Homo sapiens, UniProt P17787+P43681)
Assay: 3H-epibatidine radioligand binding assay
Details: with previously reported IC50 values

Question: Which “block of 3H-epibatidine binding” value does the source give for `CO[C@H]1CC=C2CCN3CCC4=C(CC(=O)OC4)[C@]23C1` [dihydro-β-erythroidine] here?
Answer: Its value is “blocked”.
